Assay results as given in BindingDB's records for patent US10821115 (Amgen, 2020).

Amino acid sequences for entries named in this document (tags omitted). Residues count along the entry.
UniProt Q07820, 171-327: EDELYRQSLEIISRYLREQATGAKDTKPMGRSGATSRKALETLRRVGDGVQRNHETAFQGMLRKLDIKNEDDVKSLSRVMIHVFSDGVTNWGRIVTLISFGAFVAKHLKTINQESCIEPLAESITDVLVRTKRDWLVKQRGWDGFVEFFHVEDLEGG

Molecular target: T1, Induced myeloid leukemia cell differentiation protein Mcl-1 [171-327] (Homo sapiens, UniProt Q07820)
T1 construct: 171-327
Test: Time-Resolved Fluorescence Resonance Energy Transfer (TR-FRET) Assay

Row | Compound | IC50 [pM]
1 | COC(=O)[C@H](NC(=O)C[C@]1(OC)/C=C/C[C@H](C)[C@@H](C)S(=O)(=O)NC(=O)c2ccc3c(c2)N(C[C@@H]2CC[C@H]21)C[C@@]1(CCCc2cc(Cl)ccc21)CO3)C(C)=O [US10821115, Example 100582] | 197
2 | CO[C@]1(CN2CCN(C(C)C)CC2)/C=C/C[C@H](C)[C@@H](C)S(=O)(=O)NC(=O)c2ccc3c(c2)N(C[C@@H]2CC[C@H]21)C[C@@]1(CCCc2cc(Cl)ccc21)CO3 [US10821115, Example 5] | 98
